## Yeast mating assay 1: variants of the scFv Ab-14

Antigen: PDVDLGDISGINAS, a 14-residue peptide of the SARS-CoV-2 spike HR2 region.

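The parent was found by panning a naive human phage display library on the peptide. Library AAYL49 holds single substitutions and randomly drawn double and triple substitutions in the CDRs. AlphaSeq pools MATa yeast showing the antibodies with MATalpha yeast showing the peptide. The frequency of each diploid, read from paired DNA barcodes, reflects how well the two displayed proteins bind. A regression on co-assayed BCL2-family reference pairs converts the normalised counts of each replicate to an apparent Kd. There are three technical replicates.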

Parent scFv Ab-14: VH joined to VL by a 15-residue (Gly4Ser)3 linker. Changes lie in the heavy chain CDRs alone.
VH: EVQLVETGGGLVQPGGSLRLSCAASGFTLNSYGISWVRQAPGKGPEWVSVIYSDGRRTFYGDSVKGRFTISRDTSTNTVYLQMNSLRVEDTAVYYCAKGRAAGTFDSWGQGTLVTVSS
VL: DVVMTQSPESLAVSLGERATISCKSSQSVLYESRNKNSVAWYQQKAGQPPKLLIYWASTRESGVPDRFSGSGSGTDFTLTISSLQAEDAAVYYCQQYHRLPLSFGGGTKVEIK

Positions count from residue 1 of the parent VH; R57G puts G in place of R.
Affinities are written as log10 Kd with Kd in nM; a lower number is a better binder.
"ND" marks a missing value. The strain was present, yet no cells mated with the target were sequenced in that replicate, which points to weak or no binding.
Three control strains display no target. For library AAYL49, 15% of the pairings with them gave a signal, with a median of 4.06 and one signal in twenty below 2.83, so weak values seen in few replicates may be background. For each scFv, signals with the empty controls are counted beside the result, with their mean in brackets.

changes	log10 Kd, replicates	empty controls
R57G+T104N+S107I	ND / ND / ND	1/9 (3.51)
Y60D+G103A+T104N	ND / ND / ND	0/9
S35K+V50G	ND / ND / 3.84	4/9 (4.62)
F59V+G103Q+S107W	0.64 / 0.82 / 0.94	1/9 (4.51)
T28I+N30A+R57T	2.06 / 3.18 / ND	0/9
V50K+Y60K+G103N	ND / 4.78 / ND	4/9 (4.45)
S31L+I34D+D106T	ND / ND / ND	3/9 (4.18)
G26V+T58K+Y60E	ND / 5.04 / ND	7/9 (4.43)
I34S+I51D+A102D	ND / ND / ND	0/9
V50N+Y60S+S63F	3.75 / 4.26 / ND	3/9 (4.53)
D54F+R57K+Y60A	5.35 / ND / ND	2/9 (3.21)
V50H+G99D+S107P	ND / 3.60 / ND	4/9 (3.80)
R56D+F59W	1.90 / 1.95 / 1.89	5/9 (3.68)
V50K	ND / ND / ND	1/9 (3.07)
S53L+G99I+R100H	ND / 3.33 / ND	0/9
I34D+T104R+D106H	ND / ND / ND	0/9
D54M	ND / ND / ND	0/9
V50F+R57E+F59P	ND / ND / ND	1/9 (3.06)
T28H+Y60V+T104F	ND / ND / ND	0/9
T28M	0.94 / 1.28 / 1.28	0/9
F27K+T58D+S107Q	ND / ND / ND	1/9 (2.92)
S31W+S35Q+T58Y	ND / ND / ND	0/9
I34D+D106C	ND / ND / ND	0/9
Y52N+R56C+R100P	ND / 3.47 / ND	3/9 (3.35)
G99K+F105Y	2.78 / 2.09 / 2.81	2/9 (3.17)
G55Q+V64A+A102F	ND / ND / ND	0/9
I34A+S63T+G103S	ND / ND / ND	0/9
S31T+S35Q+D62W	ND / ND / ND	1/9 (3.68)
D54C+R57K+A102P	ND / ND / ND	2/9 (3.49)
D54M+F59K+D62H	ND / 4.90 / 6.10	5/9 (3.81)

4 of these entries, quoted again:

{"changes": "S53L+G99I+R100H", "log10 Kd, replicates": "ND / 3.33 / ND", "empty controls": "0/9"}
{"changes": "I34S+I51D+A102D", "log10 Kd, replicates": "ND / ND / ND", "empty controls": "0/9"}
{"changes": "D54M+F59K+D62H", "log10 Kd, replicates": "ND / 4.90 / 6.10", "empty controls": "5/9 (3.81)"}
{"changes": "Y52N+R56C+R100P", "log10 Kd, replicates": "ND / 3.47 / ND", "empty controls": "3/9 (3.35)"}

From the AlphaSeq antibody data of Engelhart et al. 2022 (doi:10.1038/s41597-022-01779-4), copy in the FLAb collection.